## CycPeptMPDB entries from one study

Source: CycPeptMPDB (Li et al. 2023), which took these values from Furukawa et al. 2016, doi:10.1021/acs.jmedchem.6b01246.

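Lipid, pH, incubation time, direction and concentration are not recorded in the data file. Other peptides of the study may be missing here. Entries at the database's floor value (log10 P of -10) are not listed.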

PAMPA measures passive passage through an artificial lipid membrane. Permeability is in 10^-6 cm/s, converted from the database's log10 values; higher is more permeable.

CCCC[C@@H]1NC(=O)[C@H](CC(C)C)N(C)C(=O)CN(CCc2cccnc2)C(=O)[C@H](CC(C)C)NC(=O)CN(CCN2CCOCC2)C(=O)[C@H]2CCCN2C1=O is reported with PAMPA 0.26 × 10^-6 cm/s.
CCCC[C@@H]1NC(=O)[C@H](CC(C)C)N(C)C(=O)CN(CCOc2ccccc2)C(=O)[C@H](Cc2ccc3ccccc3c2)NC(=O)CN(Cc2ccc3c(c2)OCO3)C(=O)[C@H]2CCCN2C1=O is reported with PAMPA 0.0013 × 10^-6 cm/s.
CCCC[C@@H]1NC(=O)[C@H](CC(C)C)N(C)C(=O)CN(CCCN2CCCC2=O)C(=O)[C@H](C)NC(=O)CN(CCN2CCOCC2)C(=O)[C@H]2CCCN2C1=O is reported with PAMPA 0.001 × 10^-6 cm/s.
CCCC[C@@H]1NC(=O)[C@H](CC(C)C)N(C)C(=O)CN(CCCc2cnn(C)c2)C(=O)[C@H](Cc2ccccc2)NC(=O)CN(Cc2ccc(Cl)cc2)C(=O)[C@H]2CCCN2C1=O is reported with PAMPA 0.78 × 10^-6 cm/s.
CCCCCN1CC(=O)N(C)[C@@H](CC(C)C)C(=O)N[C@@H](CCCC)C(=O)N2CCC[C@@H]2C(=O)N(CCN2CCOCC2)CC(=O)N[C@@H](Cc2ccccc2)C1=O is reported with PAMPA 5.2 × 10^-6 cm/s.
CCCCCN1CC(=O)N(C)[C@@H](CC(C)C)C(=O)N[C@@H](CCCC)C(=O)N2CCC[C@@H]2C(=O)N(CCCOC(C)C)CC(=O)N[C@@H](CC(C)C)C1=O is reported with PAMPA 5.8 × 10^-6 cm/s.
CCCC[C@@H]1NC(=O)[C@H](CC(C)C)N(C)C(=O)CN(CCCc2cnn(C)c2)C(=O)[C@H](Cc2ccccc2)NC(=O)CN(Cc2cc(CC(C)C)on2)C(=O)[C@H]2CCCN2C1=O is reported with PAMPA 2.3 × 10^-6 cm/s.
CCCC[C@@H]1NC(=O)[C@H](CC(C)C)N(C)C(=O)CN(CCCN2CCCC2=O)C(=O)[C@H](Cc2ccc3ccccc3c2)NC(=O)CN(CC(C)C)C(=O)[C@H]2CCCN2C1=O is reported with PAMPA 2 × 10^-6 cm/s.
CCCC[C@@H]1NC(=O)[C@H](CC(C)C)N(C)C(=O)CN(CC2CCOCC2)C(=O)[C@H](C)NC(=O)CN(CCN2CCOCC2)C(=O)[C@H]2CCCN2C1=O is reported with PAMPA 0.0052 × 10^-6 cm/s.
CCCC[C@@H]1NC(=O)[C@H](CC(C)C)N(C)C(=O)CN(CC2CCOCC2)C(=O)[C@H](Cc2ccc3ccccc3c2)NC(=O)CN(Cc2ccc3c(c2)OCO3)C(=O)[C@H]2CCCN2C1=O is reported with PAMPA 0.069 × 10^-6 cm/s.
CCCC[C@@H]1NC(=O)[C@H](CC(C)C)N(C)C(=O)CN(CCOC)C(=O)[C@H](CC(C)C)NC(=O)CN(CCC)C(=O)[C@H]2CCCN2C1=O is reported with PAMPA 6.9 × 10^-6 cm/s.
CCCC[C@@H]1NC(=O)[C@H](CC(C)C)N(C)C(=O)CN(CCOC)C(=O)[C@H](Cc2ccc3ccccc3c2)NC(=O)CN(CC(C)C)C(=O)[C@H]2CCCN2C1=O is reported with PAMPA 2.2 × 10^-6 cm/s.
CCCC[C@@H]1NC(=O)[C@H](CC(C)C)N(C)C(=O)CN(CCOC)C(=O)[C@H](Cc2ccc3ccccc3c2)NC(=O)CN(CCCCc2ccccc2)C(=O)[C@H]2CCCN2C1=O is reported with PAMPA 0.018 × 10^-6 cm/s.
CCCC[C@@H]1NC(=O)[C@H](CC(C)C)N(C)C(=O)CN(CCOC)C(=O)[C@H](C)NC(=O)CN(CCCOC(C)C)C(=O)[C@H]2CCCN2C1=O is reported with PAMPA 0.48 × 10^-6 cm/s.
CCCC[C@@H]1NC(=O)[C@H](CC(C)C)N(C)C(=O)CN(CCc2cccnc2)C(=O)[C@H](C)NC(=O)CN(CCCCc2ccccc2)C(=O)[C@H]2CCCN2C1=O is reported with PAMPA 2.7 × 10^-6 cm/s.
CCCC[C@@H]1NC(=O)[C@H](CC(C)C)N(C)C(=O)CN(CCCN2CCCC2=O)C(=O)[C@H](Cc2ccccc2)NC(=O)CN(Cc2ccc(Cl)cc2)C(=O)[C@H]2CCCN2C1=O is reported with PAMPA 1.7 × 10^-6 cm/s.
CCCCCN1CC(=O)N(C)[C@@H](CC(C)C)C(=O)N[C@@H](CCCC)C(=O)N2CCC[C@@H]2C(=O)N(CCN2CCOCC2)CC(=O)N[C@@H](C)C1=O is reported with PAMPA 0.38 × 10^-6 cm/s.
CCCC[C@@H]1NC(=O)[C@H](CC(C)C)N(C)C(=O)CN(CCOC)C(=O)[C@H](Cc2ccccc2)NC(=O)CN(CCN2CCOCC2)C(=O)[C@H]2CCCN2C1=O is reported with PAMPA 0.42 × 10^-6 cm/s.
CCCC[C@@H]1NC(=O)[C@H](CC(C)C)N(C)C(=O)CN(CCCN2CCCC2=O)C(=O)[C@H](Cc2ccccc2)NC(=O)CN(Cc2ccc3c(c2)OCO3)C(=O)[C@H]2CCCN2C1=O is reported with PAMPA 1.4 × 10^-6 cm/s.
CCCC[C@@H]1NC(=O)[C@H](CC(C)C)N(C)C(=O)CN(CCOC)C(=O)[C@H](C)NC(=O)CN(CC(C)C)C(=O)[C@H]2CCCN2C1=O is reported with PAMPA 0.83 × 10^-6 cm/s.
CCCC[C@@H]1NC(=O)[C@H](CC(C)C)N(C)C(=O)CN(CCc2cccnc2)C(=O)[C@H](C)NC(=O)CN(CCN2CCOCC2)C(=O)[C@H]2CCCN2C1=O is reported with PAMPA 0.033 × 10^-6 cm/s.
CCCC[C@@H]1NC(=O)[C@H](CC(C)C)N(C)C(=O)CN(CCCc2cnn(C)c2)C(=O)[C@H](C)NC(=O)CN(CC(C)C)C(=O)[C@H]2CCCN2C1=O is reported with PAMPA 0.37 × 10^-6 cm/s.
CCCC[C@@H]1NC(=O)[C@H](CC(C)C)N(C)C(=O)CN(CCOc2ccccc2)C(=O)[C@H](C)NC(=O)CN(CCCCc2ccccc2)C(=O)[C@H]2CCCN2C1=O is reported with PAMPA 0.55 × 10^-6 cm/s.